Tests used:
prothrombinase [1] = target: T1, prothrombinase (Homo sapiens, UniProt P00742); assay: fluorescent prothrombinase assay (DAPA; conversion of prothrombin to α-thrombin); type: biochemical; conditions: DAPA fluorescence, series of peptide concentrations, read-out: IC50 for inhibition of prothrombinase activity
T1 construct: purchased Haematologic Technologies, Inc
Text: The assay used to obtain the data shown in FIG. 4 is a fluorescent assay that is described in Example 3 of this document. Briefly, the fluorescent assay, in contrast to the visual assay, measures only one reaction of the many necessary for formation of a blood clot. The fluorescent assay measures conversion of prothrombin to a-thrombin as catalyzed by prothrombinase. A fluorescent assay reaction contains prothrombin, factor Xa, factor Va and a preparation of phospholipid vesicles, which facilitate assembly of the aforementioned components into a functioning prothrombinase enzyme.
Each fluorescent assay also contains a fluorescent compound called dansylarginine-N-(3-ethyl-1,5-pentanediyl)amide (or DAPA for short). DAPA specifically binds to α-thrombin, the product of the prothrombinase reaction. Binding of DAPA by α-thrombin increases the fluorescence intensity of DAPA. In the case where no peptide inhibitor of prothrombinase is present in the reaction, high levels of α-thrombin are produced in the reaction, and DAPA fluorescence is high. When a peptide inhibitor of prothrombinase is present, little α-thrombin is produced in the reaction, and DAPA fluorescence is low. Therefore, by measuring DAPA fluorescence, the inhibitory ability of each peptide is determined. […]
Activities of prothrombinase, as measured by DAPA fluorescence, are shown on the y-axis of FIG. 4. […] DAPA fluorescence in the absence of both peptide and factor Va (the bar labeled “APXa” in FIG. 4) is 9% of the APXa/Va activity, and is background fluorescence.
The fluorescence assay specifically measured the conversion of prothrombin to α-thrombin, one essential reaction of the many required for blood clotting (see FIG. 1). […]
The fluorescent properties of DAPA were contributed by the dansyl moiety. When bound to α-thrombin, the fluorescence intensity and lifetime of the dansyl moiety were increased three-fold. Therefore, in this assay, when prothrombinase activity was uninhibited, α-thrombin was produced (see FIG. 1) and DAPA fluorescence was high. […]

By UniProt entry, the sequences of proteins in these tests, tags left out. Residues count along the entry.
UniProt P00742, 41-179 limits assumed: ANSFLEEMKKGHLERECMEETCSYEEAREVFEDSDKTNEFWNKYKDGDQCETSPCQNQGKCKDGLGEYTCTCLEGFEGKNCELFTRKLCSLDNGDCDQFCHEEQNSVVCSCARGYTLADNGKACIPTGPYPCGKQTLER
UniProt P00742, 235-488 limits assumed: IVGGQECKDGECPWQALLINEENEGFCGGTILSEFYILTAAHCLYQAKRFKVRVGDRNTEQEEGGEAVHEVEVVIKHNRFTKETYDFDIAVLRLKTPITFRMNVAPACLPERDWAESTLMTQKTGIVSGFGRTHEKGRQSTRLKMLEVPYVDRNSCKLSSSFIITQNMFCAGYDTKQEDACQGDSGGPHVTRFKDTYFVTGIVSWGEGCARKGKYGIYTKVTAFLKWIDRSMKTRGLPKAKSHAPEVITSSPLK

prothrombinase [2] = target: T1, prothrombinase; assay: visual blood clotting assay (factor V-depleted plasma, thromboplastin, factor Va); type: biochemical; conditions: clotting time without peptide (about 25 seconds) = 100% activity, read-out: IC50 for inhibition of prothrombinase clotting activity
Text: FIG. 3 is a graph showing inhibition of prothrombinase activity by the 42 amino acid peptide NR42, encompassing amino acids 307-348 of the human factor Va heavy chain (SEQ ID NO. 2). The assay used to obtain the data shown in FIG. 3 is a visual blood clotting assay that is described in detail in Example 2 of this document.
Briefly, in the visual blood clotting assay, reactions are set up that contain all components of the blood necessary to form a blood clot and the time required for formation of a visual blood clot is recorded. To test inhibitory activity of the NR42 peptide, different concentrations of NR42 are added to a series of such reactions. […] The time required for an observable blood clot to form in the absence of NR42 peptide (0 μM peptide on the x-axis) is designated as 100% prothrombinase activity, as shown on the y-axis of FIG. 3. Inhibition of blood clotting by […] results in longer clotting times. Longer clotting times are shown on the y-axis of the graph as decreased prothrombinase activity. […]
Factor Va was purchased or, alternatively was produced by treatment of 50 nM of purified factor V (Haematologic Technologies, Inc.) with 1 nM α-thrombin for 10 min followed by the addition of 2 nM hirudin. […] This time was arbitrarily determined to be 100% activity. […]

Row | IC50 (prothrombinase [1]) | IC50 (prothrombinase [2]) | SMILES
1 | ~50 µM | – | CC(C)C[C@H](N)C(=O)N[C@@H](CC(=O)O)C(=O)N[C@@H](CC(N)=O)C(=O)N[C@@H](Cc1ccccc1)C(=O)N[C@@H](CO)C(=O)O [Peptide L5S, LDNFS]
2 | ~0.5 µM | ~1300 nM | CC[C@H](C)[C@H](NC(=O)[C@H](Cc1ccccc1)NC(=O)[C@H](Cc1ccc(O)cc1)NC(=O)[C@H](CCC(=O)O)NC(=O)[C@H](Cc1c[nH]c2ccccc12)NC(=O)[C@H](CCCNC(=N)N)NC(=O)[C@H](CCCCN)NC(=O)[C@H](CCSC)NC(=O)[C@H](Cc1c[nH]cn1)NC(=O)[C@H](CCCNC(=N)N)NC(=O)[C@H](CCCNC(=N)N)NC(=O)[C@H](CCC(N)=O)NC(=O)[C@H](CCC(=O)O)NC(=O)[C@H](CCCNC(=N)N)NC(=O)[C@@H](NC(=O)[C@@H](NC(=O)[C@H](CCCCN)NC(=O)[C@H](CCCCN)NC(=O)[C@H](CC(C)C)NC(=O)[C@@H](N)CC(N)=O)[C@@H](C)CC)[C@@H](C)O)C(=O)N[C@@H](C)C(=O)N[C@@H](C)C(=O)N[C@@H](CCC(=O)O)C(=O)N[C@@H](CCC(=O)O)C(=O)N[C@H](C(=O)N[C@H](C(=O)N[C@@H](Cc1c[nH]c2ccccc12)C(=O)N[C@@H](CC(=O)O)C(=O)N[C@@H](Cc1ccc(O)cc1)C(=O)N[C@@H](C)C(=O)N1CCC[C@H]1C(=O)N[C@H](C(=O)N[C@H](C(=O)N1CCC[C@H]1C(=O)N[C@@H](C)C(=O)N[C@@H](CC(N)=O)C(=O)N[C@@H](CCSC)C(=O)N[C@@H](CC(=O)O)C(=O)N[C@@H](CCCCN)C(=O)N[C@@H](CCCCN)C(=O)N[C@@H](Cc1ccc(O)cc1)C(=O)N[C@@H](CCCNC(=N)N)C(=O)O)[C@@H](C)CC)C(C)C)[C@@H](C)CC)C(C)C [NR42]
3 | 10 to 15 µM | – | C[C@H](NC(=O)[C@H](Cc1ccccc1)NC(=O)[C@H](Cc1ccc(O)cc1)NC(=O)[C@@H](N)CCC(=O)O)C(=O)N[C@@H](CCC(=O)O)C(=O)O [EYFAE]
